From PubChem BioAssay AID624465 (National Center for Advancing Translational Sciences (NCATS), 2012)
The entries are a selection whose mix differs from that of the whole data set. Activity calls are given as the source filed them. No stated cut-off is given here; in the data, active means activation above about 40%; inconclusive means between about 15% and that limit; inactive means weaker than that.

Chains of the proteins cited; added tags and fusions are not shown.
UniProt P14416, whole entry: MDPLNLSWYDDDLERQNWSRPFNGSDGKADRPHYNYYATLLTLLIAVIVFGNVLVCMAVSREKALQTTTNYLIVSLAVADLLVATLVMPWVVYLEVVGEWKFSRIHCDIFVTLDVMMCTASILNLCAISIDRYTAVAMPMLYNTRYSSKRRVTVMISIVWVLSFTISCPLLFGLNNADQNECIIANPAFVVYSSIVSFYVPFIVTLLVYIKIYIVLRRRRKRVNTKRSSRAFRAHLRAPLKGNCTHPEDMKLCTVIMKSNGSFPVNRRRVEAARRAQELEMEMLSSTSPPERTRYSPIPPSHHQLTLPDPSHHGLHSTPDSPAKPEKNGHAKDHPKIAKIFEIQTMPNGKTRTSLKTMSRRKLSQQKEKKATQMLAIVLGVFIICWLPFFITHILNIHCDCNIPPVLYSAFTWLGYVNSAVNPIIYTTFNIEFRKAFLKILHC

molecular target: D(2) dopamine receptor (Homo sapiens) (UniProt P14416); experiment: Beta-Arrestin HTS for Positive Allosteric Modulators of the Human D2 Dopamine Receptor: Agonists; details: DiscoveRx PathHunter D2 beta-arrestin, luminescence, 90 min; active compounds read high; 100% = 57 uM dopamine signal
From the text: There is great interest in identifying small molecule ligands for G-protein coupled receptors (GPCRs) as nearly 50% of all FDA-approved drugs target these important receptor proteins. […] Amongst the dopamine receptors (DARs), the D2 is arguably one of the most validated drug targets in neurology and psychiatry. For instance, all receptor-based antiparkinsonian drugs primarily work via stimulating the D2 DAR, whereas all FDA-approved antipsychotic agents are antagonists of this receptor. The D2 DAR is also therapeutically targeted in other disorders such as restless legs syndrome, tardive dyskinesia, Tourette's syndrome, and hyperprolactinemia.
To this end, a miniaturized qHTS screen was developed to be screened against the Molecular Libraries Small Molecule Repository (MLSMR). This assay seeks to identify agonists against the D2 DAR.
NIH Molecular Libraries Probe Production Network [MLPCN]
NIH Chemical Genomics Center [NCGC]
PI Name: David Sibley, National Institutes of Neurological Disorders and Stroke
DiscoveRx D2 cells were thawed from frozen stock and seeded at 2,100 cells/ 3 uL/well media (DiscoveRx Plating Reagent 2) with MultiDrop Combi dispenser (Thermo Scientific, Logan, UT) onto white tissue culture treated 1536-well Aurora plates (Brooks Automation, Chelmsford, MA) and allowed to attach overnight at 37 deg C, 5% CO2. Next, 23 nL/well of compound solutions in DMSO were added with a pintool transfer (Kalypsis, San Diego, CA). As the positive control, 1 uL/well dopamine (EC100, 57 uM final concentration) diluted in buffer (HBSS + 10 mM HEPES + SMB + 0.1% Tween-20) was dispensed to 1 column of each plate. The rest of the plate was dispensed with buffer only, 1 uL/well as well. The cells were stimulated by compounds or dopamine control for 90 minutes at 37 deg C, 5% CO2, after which 1.5 ul/well of DiscoveRx detection reagent was added with BioRAPTR FRD dispenser. The detection reagent was prepared by mixing of Galacton Star Substrate, Emerald II solution and PathHunter buffer (supplied by the assay kit) together at 1:5:19 proportion accordingly just prior to dispensing. The plates were incubated at ambient temperature for 1 hour and then the luminescent signal was read on ViewLux plate reader (PerkinElmer, Waltham, MA).

Compound	activation
CP(=O)(Nc1ccc(SC(F)(F)F)cc1)Oc1ccc(F)cc1 (stereo unspecified)	inactive: -3.74%
O=P(Nc1nccs1)(c1ccccc1)c1ccccc1	inactive: 0.798%
CC(C)C(=O)NC(Sc1ccccc1)C(Cl)(Cl)Cl (stereo unspecified)	inactive: -2.29%
CCOP(C)(=S)SCC(=O)NC(C)(CC)C(=O)O (stereo unspecified)	inactive: -2.48%
c1nnnn1CCn1cnnn1	inactive: -1.42%
CP(=O)(Nc1ccc2c(c1)OCCO2)Oc1ccccc1 (stereo unspecified)	inactive: -3.5%
Cc1ccccc1NP(C)(=O)Nc1ccccc1C	inactive: -1.32%
COc1ccc(N)c([N+](=O)[O-])c1[N+](=O)[O-]	inactive: 0.641%
COc1ccc(OP(C)(=O)Nc2cccc(Br)c2)cc1 (stereo unspecified)	inactive: -4.67%
CN(C)C1(CNC(=O)c2ccc(Cl)c(S(N)(=O)=O)c2)CCCCC1	inactive: -0.706%
O=P(Nc1ccccn1)(c1ccc(Br)cc1)c1ccc(Br)cc1	inactive: 3.22%
C[C@H]1OP(=O)(Oc2ccccc2)[C@H](O)[C@H](O)[C@H]1N=[N+]=[N-] (stereo partly specified)	inactive: -1.85%
O=P(Nc1nc2ccccc2s1)(c1ccccc1)c1ccccc1	inactive: 2.21%
CN(C)CCOC(=O)C(O)(c1ccccc1)C1CCCCC1 (stereo unspecified)	inactive: -1.07%
COc1ccc(NP(C)(=O)Oc2ccccc2OC)cc1 (stereo unspecified)	inactive: -3.19%
O=[N+]([O-])c1ccc(OP2(=O)COCCO2)cc1 (stereo unspecified)	inactive: -7.83%
CC(=O)NC(SC(=S)N(C)C)C(Cl)(Cl)Cl (stereo unspecified)	inactive: -2.68%
O=[N+]([O-])c1ncn(CCn2cnc([N+](=O)[O-])n2)n1	inactive: -0.437%
O=[N+]([O-])c1ccc(O)c(/C=N/Nc2ccc([N+](=O)[O-])cc2[N+](=O)[O-])c1	inactive: 11.4%
Cc1cc(-c2cccc3ccccc23)c(C)cn1.O=[N+]([O-])c1cc([N+](=O)[O-])c(O)c([N+](=O)[O-])c1	inactive: -6.98%
O=[As](O)(c1ccccc1)c1ccc(O)cc1	inactive: -1.84%

Compound	activation
Nc1ccc([As](=O)(O)c2ccc([N+](=O)[O-])cc2)cc1	inactive: 1.63%
C(Cc1nn[nH]n1)Cc1nn[nH]n1	inactive: 1.67%
Cc1c(C(c2ccc3c(c2)OCO3)c2c(C)n(C)n(-c3ccccc3)c2=O)c(=O)n(-c2ccccc2)n1C.O=[N+]([O-])c1cc([N+](=O)[O-])c(O)c([N+](=O)[O-])c1	inactive: -0.189%
O=C(OC1CN2CCC1CC2)c1cccc(Cl)c1 (stereo unspecified)	inactive: -4.07%
O=C(NC1CCS(=O)(=O)C1)NP(=S)(Oc1ccccc1)Oc1ccccc1 (stereo unspecified)	inactive: 0.526%
CCNC(=S)/N=C(\N)N[N+](=O)[O-]	inactive: -3.67%
Cc1ccc(NP(=O)(Oc2cccc(C)c2)Oc2cccc(C)c2)nc1	inactive: 0.794%
c1ccc(-c2nn[nH]n2)c(-c2nn[nH]n2)c1	inactive: -4.29%
CCOC(=O)c1ccc(NP(C)(=O)Oc2ccc(F)cc2)cc1 (stereo unspecified)	inactive: 0.267%
O=P1(N(CCCl)CCCl)OCCC2CCCCN21 (stereo unspecified)	inactive: -2.7%
COc1ccc(OP(C)(=O)Nc2ccc(SC(F)(F)F)cc2)cc1 (stereo unspecified)	inactive: 2.64%
CC(=O)NC(SC(=S)N(CC(C)C)CC(C)C)C(Cl)(Cl)Cl (stereo unspecified)	inactive: -2.65%
Cc1ccc(OP(=O)(Nc2ccccn2)Oc2ccc(C)cc2)cc1	inactive: 8.54%
COC(=O)c1cc2c(s1)N=C(c1ccccc1)N(C)P2(=O)N1CCOCC1 (stereo unspecified)	inactive: -0.913%
Cc1c([N+](=O)[O-])cc([N+](=O)[O-])c(Br)c1[N+](=O)[O-]	inactive: -4.01%
CCC(=O)N1C2C3N(C(=O)CC)C1C1N(C(=O)CC)C(C(N1C(=O)CC)N3C(=O)CC)N2C(=O)CC	inactive: -1.55%
CCN(CC)CCCOC(=O)C(O)(c1ccccc1)C1CCCCC1 (stereo unspecified)	inactive: -3.92%
O=C(OC1CN2CCC1CC2)c1ccccc1 (stereo unspecified)	inactive: -4.61%
CP(=O)(Nc1ccccc1)Oc1ccc(F)cc1 (stereo unspecified)	inactive: -4.07%
CN(C)C(=O)Oc1noc2ccccc12	inactive: -2.59%
CCCCCOc1ccc(NP(C)(=O)Oc2ccc(Cl)cc2Cl)cc1 (stereo unspecified)	inactive: -3.19%

Compound	activation
O=c1c2cc([N+](=O)[O-])ccc2[nH]c2c([N+](=O)[O-])cc([N+](=O)[O-])cc12	inactive: -5.17%
Cc1ccccc1OP(=O)(Nc1ccccn1)Oc1ccccc1C	inactive: 0.732%
CC(NC(=O)COC(=O)C(O)(c1ccccc1)c1ccccc1)c1ccccc1 (stereo unspecified)	inactive: 0.352%
CCOc1ccc(C2=NCC(CBr)S2)cc1 (stereo unspecified)	inactive: -6.69%
O=P1(Nc2nc3ccc(Cl)cc3s2)COc2ccccc2O1 (stereo unspecified)	inactive: -2.28%
CP(=O)(Nc1ccccc1F)Oc1ccccc1 (stereo unspecified)	inactive: -1.96%
CCc1cc(O)c([N+](=O)[O-])c(C)c1[N+](=O)[O-]	inactive: -0.72%
CC(C)c1ccc(OP(C)(=O)Nc2ccc(SC(F)(F)F)cc2)cc1 (stereo unspecified)	inactive: -0.46%
CC(C)(C)C(=O)NC(Sc1ccccc1)C(Cl)(Cl)Cl (stereo unspecified)	inactive: 0.545%
COC(=O)C1(C)COP(=O)(NCc2ccccc2)OC1 (stereo unspecified)	inactive: -0.939%
N#C/C(=C\c1ccc(N(CCBr)CCBr)cc1)C(N)=O	inactive: -4.23%
CC(=O)c1ccc(N2CC2c2ccncc2)cc1 (stereo unspecified)	inactive: -1.3%
C[C@@H]1C=CCP(=O)(Oc2ccccc2)O1 (stereo partly specified)	inactive: -1.91%
C[C@H]1OP(=O)(Oc2ccccc2)C[C@@H]2O[C@@H]21 (stereo partly specified)	inactive: -3.42%
O=C(OCCN1CCN(CCOCc2ccccc2)CC1)C(O)(c1ccccc1)c1ccccc1	inactive: -0.62%
Cc1ccccc1CN(C)C(=O)COC(=O)C(O)(c1ccccc1)c1ccccc1	inactive: 1.44%
CC(=O)Nc1ccc(Oc2c([N+](=O)[O-])cc([N+](=O)[O-])cc2[N+](=O)[O-])cc1	inactive: -9.13%
CC(=O)Nc1ccc([As](=O)(O)O)c(O)c1	inactive: -0.353%
Cc1ccc(N/C(=N/P(=O)(N2CCOCC2)N2CCOCC2)N2CCOCC2)cc1	inactive: -4.05%
